According to patent US20240400691A1 (FBD BIOLOGICS, published 2024):

Target: T1, human PD-L1 (human)
T1 construct: whole, on cells; For the PD-L1 tf DLD1 cells the species of PD-L1 is not restated; also called PD-L1 tf CHO-S; PD-L1 tf DLD1
Experiment: flow cytometry on PD-L1 tf CHO-S cells, fixed concentration of biotinylated PD1_G4 alone, streptavidin-PE

- binding result: binds
B1: biotinylated PD1_G4 (Fc fusion)
chain: DSPDRPWNPPTFSPALLVVTEGDNATFTCSFSNTSESFVLNWYRMSPSNQTDKLAAFPEDRSQPGQDCRFRVTQLPNGRDFHMSVVRARRNDSGTYLCGAISLAPKAQIKESLRAELRVTERRAEVPTAHPSPSPRPAGQFQTLVESKYGPPCPPCPAPEFLGGPSVFLFPPKPKDTLMISRTPEVTCVVVDVSQEDPEVQFNWYVDGVEVHNAKTKPREEQFNSTYRVVSVLTVLHQDWLNGKEYKCKVSNKGLPSSIEKTISKAKGQPREPQVYTLPPSQEEMTKNQVSLTCLVKGFYPSDIAVEWESNGQPENNYKTTPPVLDSDGSFFLYSRLTVDKSRWQEGNVFSCSVMHEALHNHYTQKSLSLSLGK
modifications: biotinylated (sites not given)
notes: also called Biotin PD1 Fc
